GIV Gai3 FP – inhibitors of GIV GBA-motif binding to rat Galpha-i3. 210,000 tested, 0.42% active. percent of control (FP), % (concentration not given with the values). AID 1224905. Galpha-i3/FITC-GIV peptide fluorescence polarization, 90 min; active compounds read low; scaled: aluminum fluoride 0%, vehicle 100%;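 active = replicate mean at 85% of control or lower, very high polarization wells dropped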;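 note: wells of about 15 µL received 100 nL stock; the first replicate is given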
HCMV UL50-53 inh – disrupts HCMV UL50-UL53 complex binding | HTRF UL50-UL53 interaction, normalized percent inhibition | inhibition, % (test concentration not listed) | 190,000 compounds, 0.15% hits | AID 1918969; in the data active = inhibition above about 27%, passing the limit was not always enough
GIV-Gai FP conf – confirmation of inhibitors of GIV binding to rat Galpha-i3; shares compounds with GIV Gai3 FP; FITC-GIV peptide binding to Galphai3, fluorescence polarization; stronger effect = lower value; fluorescence polarization, mP at 100 µM; 580 compounds, 38% hits; AID 1259350;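 active = inhibition score of 15 or more, meaning 100 minus mean polarization as percent of control over three replicates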
GIV-Gai AS conf – GIV-Galpha-i3 inhibition, AlphaScreen confirmation. AID 1259351. shares compounds with GIV Gai3 FP. AlphaScreen counts at 100 µM. AlphaScreen Galphai3-GIV binding, purified proteins, 90 min; stronger effect = lower value. 580 compounds, 39% hits;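 active = inhibition score at or above a set limit, where the score is 100 minus the three-replicate mean percent of control signal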
* hit, by the source's call; / = no result. This excerpt belongs to a sample that is enriched for hits.

1	C[C@]12CCC(=O)C=C1CC[C@@H]1[C@@H]2[C@@H](O)C[C@@]2(C)[C@H]1CC[C@]2(O)C(=O)COC(=O)CCC(=O)O
2	O=C1CCCc2nc(N3CCN(c4ccccc4F)CC3)ncc21
3	Fc1ccc(CN2CCc3nc(N4CCN(c5ccccc5F)CC4)ncc3C2)c(F)c1
4	O=C(Nc1nnc(-c2ccc(Cl)cc2Cl)s1)c1cccc(F)c1
5	CC(=O)c1c2c3c(c(Br)ccc3n(C)c1=O)C(=O)c1ccccc1-2
6	Cn1c(=O)c(C(=O)CS(=O)(=O)O)c2c3c(c(Br)ccc31)C(=O)c1ccccc1-2
screen / no.	1	2	3	4	5	6
GIV Gai3 FP	/	82*	104	/	111	84*
GIV-Gai AS conf	/	44943	/	/	/	5202*
HCMV UL50-53 inh	-15	-28	/	-13	/	/
GIV-Gai FP conf	/	68	/	/	/	62

Part of the list above in order of molecular weight, descending:
1	C[C@]12CCC(=O)C=C1CC[C@@H]1[C@@H]2[C@@H](O)C[C@@]2(C)[C@H]1CC[C@]2(O)C(=O)COC(=O)CCC(=O)O
6	Cn1c(=O)c(C(=O)CS(=O)(=O)O)c2c3c(c(Br)ccc31)C(=O)c1ccccc1-2
3	Fc1ccc(CN2CCc3nc(N4CCN(c5ccccc5F)CC4)ncc3C2)c(F)c1
screen / no.	1	6	3
GIV Gai3 FP	/	84*	104
GIV-Gai AS conf	/	5202*	/
HCMV UL50-53 inh	-15	/	/
GIV-Gai FP conf	/	62	/

Carrying on.
7	Cc1ccc(C)c(N2CCN(CCCNC(=O)c3ccc4nc(N5CCC(C)CC5)sc4c3)CC2)c1
8	CC(=O)NC1=NN(C(C)=O)C(c2ccccc2)S1 (centres undefined)
9	C=CCn1c(-c2c(C)oc3ccccc23)cs/c1=N\S(=O)(=O)c1cccs1
10	CCOC(=O)C1CCCN(C(=O)Cn2c(=O)c3ccccc3n3c(=S)sc(-c4ccccc4F)c23)C1 (centres undefined)
11	CC1CCN(C(=O)Cn2c(=O)c3ccccc3n3c(=S)sc(-c4ccccc4F)c23)CC1
12	Cc1csc(-c2cc(S(=O)(=O)Nc3ccc(Cl)cc3C)c(C)s2)n1
screen / no.	7	8	9	10	11	12
GIV Gai3 FP	102	/	/	103	81*	179
GIV-Gai AS conf	/	/	/	/	20249	/
HCMV UL50-53 inh	-17	-11	-35	5	-33	/
GIV-Gai FP conf	/	/	/	/	87	/

13	CSc1nc(-n2nc(C)cc2C)c2c3c(sc2n1)COC(C)(C)C3
14	CC1CN(C(=O)COC(=O)c2ccc(S(=O)(=O)N3CCCC3)cc2)CC(C)O1 (centres undefined)
15	COn1c2c(c3c4nonc4ccc31)CCCC2
16	On1c2c(c3c4nonc4ccc31)CCCC2
17	CCCC(=O)NC(=S)Nc1cccc(-c2nc3cc(C)cc(C)c3o2)c1C
18	CC1(C)C=C(O)C(C2(O)C(=O)c3ccccc3C2=O)C(=O)C1 (centres undefined)
screen / no.	13	14	15	16	17	18
GIV Gai3 FP	106	/	102	50*	94	/
GIV-Gai AS conf	/	/	/	10129*	/	/
HCMV UL50-53 inh	-18	-17	-2	56	-8	63
GIV-Gai FP conf	/	/	/	42*	/	/

19	CC1(C)CC(=O)C(C2(O)C(=O)c3ccccc3C2=O)C(=O)C1
20	Nc1ccc(O)c(C(=O)O)c1
21	O=C(O)C1=CC(=C(c2ccc(O)c(C(=O)O)c2)c2ccc(O)c(C(=O)O)c2)C=CC1=O
22	O=C(COC(=O)c1ccco1)NCc1ccccc1
23	Cc1ccccc1CN1C(=O)c2ccccc2Sc2ccc(C(=O)NCc3ccccc3)cc21
24	CC(=O)Nc1ccc2c3c(cc(=O)n2C)-c2ccccc2C(=O)c13
screen / no.	19	20	21	22	23	24
GIV Gai3 FP	66*	91	-19*	/	97	85*
GIV-Gai AS conf	44260	/	2586*	/	/	46281
HCMV UL50-53 inh	82*	-68	123*	9	/	/
GIV-Gai FP conf	58*	/	17*	/	/	69

25	Cn1c(=O)cc2c3c(c(Nc4ccccc4)ccc31)C(=O)c1ccccc1-2
26	CCCCOc1ccccc1Cn1c(=O)sc2ccccc21
27	CCN(CC)c1ccc(N)c(C)c1
28	CCN(CC)c1ccc(NC(C)=O)c(C)c1
29	CCOc1ccc(-c2nonc2NC(=O)C(C)Oc2ccc(F)cc2)cc1C (centres undefined)
30	CCOc1ccc(-c2nonc2NC(=O)C(C)Oc2ccc(CC)cc2)cc1C (centres undefined)
screen / no.	25	26	27	28	29	30
GIV Gai3 FP	101	101	41*	102	84*	105
GIV-Gai AS conf	/	/	1482*	/	40925	/
HCMV UL50-53 inh	/	-5	-64	-13	-16	0
GIV-Gai FP conf	/	/	74	/	66	/

31	O=C(COC(=O)C1CCC1)c1ccc(F)cc1
32	CC(O)CNC(=O)CC1(CC(=O)NCC(C)O)CCCC1 (centres undefined)
33	CCOc1ccc(NC(=O)c2cccc(Nc3cnc4ccccc4n3)c2)cc1
34	CCOC(=O)C1=C(C)N(CCOC)C(=O)/C1=C\c1ccc(N(C)C)cc1
35	CCN1C(=O)/C(=C\c2ccc(OC)cc2)C(C(=O)OC)=C1C
36	Cn1c(CNCc2ccccc2)nc2ccccc21
screen / no.	31	32	33	34	35	36
GIV Gai3 FP	/	/	103	64*	/	103
GIV-Gai AS conf	/	/	/	19702*	/	/
HCMV UL50-53 inh	1	-9	-5	-81	-12	-7
GIV-Gai FP conf	/	/	/	85	/	/

Copied from the list.
#36 in HCMV UL50-53 inh is entered as -7
#31 in HCMV UL50-53 inh is entered as 1
#35 in HCMV UL50-53 inh is entered as -12
#33 in GIV Gai3 FP is entered as 103

(listing goes on)
37	Cc1ccc(NC(=O)N2CCN(c3cc(=O)n4nc(-c5ccccc5C)sc4n3)CC2)cc1F
38	Cc1ccccc1-c1nn2c(=O)cc(N3CCN(C(=O)Nc4ccc(Cl)cc4)CC3)nc2s1
39	CC1=NN(c2ccccc2)C(=O)C1(C)N (centres undefined)
40	CC1=NN(c2ccccc2)C(=O)C1(O)C1C(=O)c2ccccc2C1=O (centres undefined)
41	Cc1ccc(N2CCN(c3ccc(C)cc3)C2c2cc(Cl)cc(Cl)c2O)cc1
42	CC1CC(C)CN(c2cnnc3c(Cl)cccc23)C1 (centres undefined)
screen / no.	37	38	39	40	41	42
GIV Gai3 FP	84*	101	104	74*	102	105
GIV-Gai AS conf	26514	/	/	4583*	/	/
HCMV UL50-53 inh	-11	12	-2	36	/	-92
GIV-Gai FP conf	80	/	/	56*	/	/

43	Clc1cccc2c(N3CCCCCC3)cnnc12
44	O=C(Nc1ccc(F)cc1F)c1nnc(C2CCN(S(=O)(=O)c3cnc[nH]3)CC2)s1
45	c1ccc(-c2nc(Cn3ccnc3)no2)cc1
46	CC(=O)n1c(/C=C2/N=C(c3cccs3)OC2=O)cc2ccccc21
47	COc1ccc(C2=N/C(=C/c3cc4ccccc4n3C(C)=O)C(=O)O2)cc1Br
48	CCCN1CC=C2C(C#N)=C(N)C(C#N)(C#N)C(c3ccc(OC)cc3)C2C1 (centres undefined)
screen / no.	43	44	45	46	47	48
GIV Gai3 FP	83*	104	108	95	113	111
GIV-Gai AS conf	33684	/	/	29162	/	/
HCMV UL50-53 inh	-105	/	/	-31	/	/
GIV-Gai FP conf	72	/	/	77	/	/

49	CCCN1CC=C2C(C#N)=C(N)C(C#N)(C#N)C(c3ccc(OCC(N)=O)cc3)C2C1 (centres undefined)
50	CCCCN(C)CCCNC(=O)c1cc(-c2ccc(Br)s2)nc2ccccc12
51	CC(C)CCNC(=O)c1cc(-c2ccc(Br)s2)nc2ccccc12
52	CCOC(=O)C1=C(C)N=c2s/c(=C\c3cc([N+](=O)[O-])ccc3N3CCOCC3)c(=O)n2C1c1ccc(F)cc1 (centres undefined)
53	CCOC(=O)C1=C(C)N=c2s/c(=C\c3cc([N+](=O)[O-])ccc3N3CCOCC3)c(=O)n2C1c1ccc(OC)cc1 (centres undefined)
54	Cn1c(-c2ccccc2)c(/C=C2/C(=O)Oc3ccccc3C2=O)c2ccccc21
screen / no.	49	50	51	52	53	54
GIV Gai3 FP	85*	106	91	74*	104	44*
GIV-Gai AS conf	23647	/	34180	55281	/	25749
HCMV UL50-53 inh	-19	-93	-7	-18	-3	/
GIV-Gai FP conf	71	/	86	64	/	66

55	Cn1c(-c2ccccc2)c(/C=N/NC(=O)c2cccs2)c2ccccc21
56	CCn1c(=O)c(-c2noc(CCC(=O)Nc3ccccc3F)n2)nn(-c2ccccc2)c1=O
57	Cc1ccc(-c2nc3ccccc3c(=O)[nH]2)cc1
58	O=c1[nH]c(-c2ccc(O)cc2)nc2ccccc12
59	N#C/C(=C\c1c(Oc2ccccc2)nc2ccccn2c1=O)C(=O)NCc1ccco1
60	CCOc1ccc2ccccc2c1/C=C(\C#N)C(=O)NCc1ccco1
61	O=C(Nc1ccc(-c2nc3ccccc3c(=O)[nH]2)cc1)C1CCCCC1
62	O=C(CN1C2=NCCCN2c2ccccc21)c1ccc(Cl)cc1
screen / no.	55	56	57	58	59	60	61	62
GIV Gai3 FP	/	102	101	88	81*	100	105	90
GIV-Gai AS conf	/	/	/	45426	31816	/	/	45914
HCMV UL50-53 inh	-25	-60	-11	-18	-55	-26	-15	/
GIV-Gai FP conf	/	/	/	69	76	/	/	68
